Values quoted from earlier work, collected in patent publication US9809865B2, “Anti-microbial agent from Paenibacillus sp. and methods and uses thereof” (Best Environmental Technologies, Inc., priority 2009, dated 2017).

Details: 121° C. for 15 min at pH 3; cited from earlier work

nisin
Activity after heat treatment: remained active
